# Literature values as cited in patent US8545903B2 (priority 2009, dated 2013).
# Conditions: in vivo; cited from earlier work
structure (smiles),measurement,value
CC(=O)N[C@H]1[C@H]([C@H](O)[C@H](O)CO)OC(C(=O)O)=C[C@@H]1N=C(N)N [Zanamivir],bioavailability,low bioavailability
